Reference: patent publication US6964983B2, “Compounds that modulate PPAR activity and methods for their preparation” (Warner-Lambert Company, LLC, priority 2002, dated 2005)

The chains behind the UniProt entries cited, without tags or fusion partners. Residues count along the entry.
UniProt Q03181, 171-441 limits assumed: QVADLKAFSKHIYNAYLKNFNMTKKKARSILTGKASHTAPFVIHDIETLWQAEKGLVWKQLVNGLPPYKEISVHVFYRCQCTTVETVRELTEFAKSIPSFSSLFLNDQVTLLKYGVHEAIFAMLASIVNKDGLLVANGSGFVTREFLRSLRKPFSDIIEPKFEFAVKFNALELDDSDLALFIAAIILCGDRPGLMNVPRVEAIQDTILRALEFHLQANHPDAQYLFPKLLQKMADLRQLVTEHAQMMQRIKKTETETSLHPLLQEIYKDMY

Target: hPPARβ (Homo sapiens, UniProt Q03181)
Assay: Transient transfection assay in HepG2 cells, Gal4-hPPARβ chimeric receptor, luciferase reporter
Format: cell-based
Details: read-out: EC50β nM (Group); Hep G2-hBeta EC50, 24 hours incubation

## Cc1cc(SCc2ccc(-c3ccc(C(F)(F)F)cc3)cc2)c(O)cc1OCC(=O)O
  EC50: < 300 nM
